Tested on: hOAT1-HEK293 cells
Assay: Cytotoxicity of Imp, CCK-8 assay, hOAT1-HEK293 cells
Type: cell-based, human
Settings: Imp 1 mmol/L plus the named inhibitor 200 μmol/L, 24 h

CCCN(CCC)S(=O)(=O)c1ccc(C(=O)O)cc1 [Prb, probenecid]
Survival rate of hOAT1-HEK293 cells with Imp in the presence of Cil or Prb: 55.4%

From article PMC6804466 (Acta Pharmaceutica Sinica. B, 2019)
